Among the data in patent publication US20070014810A1, “Inducing cellular immune responses to human papillomavirus using peptide and nucleic acid compositions” (priority 2003, published 2007) are IC50 values, retold here.

Amino acid sequences for entries named in this document (tags omitted). Residues count along the entry.
UniProt P01920, 33-261: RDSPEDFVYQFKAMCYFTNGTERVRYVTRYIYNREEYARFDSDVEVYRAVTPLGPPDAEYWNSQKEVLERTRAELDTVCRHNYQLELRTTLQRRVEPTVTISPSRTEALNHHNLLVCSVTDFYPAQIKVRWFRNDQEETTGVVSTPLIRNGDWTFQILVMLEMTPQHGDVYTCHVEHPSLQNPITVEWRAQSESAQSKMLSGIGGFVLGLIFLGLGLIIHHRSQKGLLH

For one test, the target named is HLA-DQB1*0301 (Homo sapiens, UniProt P01909+P01920). Nature of the test: biochemical.
The target of the next test is HLA-A*0101 (Homo sapiens, UniProt P04439, A114D/A174V/A182V/D101N/D185E/E176A/E190D/L180R/Q94H/R68K/S129P/T187R/V100A/V91M/W191G). Nature of the test: biochemical.

`C[C@H](NC(=O)[C@H](C)NC(=O)[C@H](Cc1c[nH]cn1)NC(=O)[C@H](C)NC(=O)[C@H](C)NC(=O)[C@H](Cc1c[nH]cn1)NC(=O)[C@H](C)NC(=O)[C@H](C)NC(=O)[C@H](Cc1c[nH]cn1)NC(=O)[C@H](C)NC(=O)[C@H](C)NC(=O)[C@H](Cc1c[nH]cn1)NC(=O)[C@H](C)NC(=O)[C@H](C)NC(=O)[C@H](Cc1c[nH]cn1)NC(=O)[C@H](C)NC(=O)[C@@H](N)Cc1ccc(O)cc1)C(=O)O`: the concentration for half-maximal inhibition (IC50) (usually the concentration at which inhibition is half-maximal) at HLA-DQB1*0301 was determined as 0.021 µM.

On to `CC(C)C[C@H](NC(=O)[C@@H]1CCCN1C(=O)[C@@H](NC(=O)[C@@H](NC(=O)[C@H](C)NC(=O)[C@@H](NC(=O)[C@@H](N)Cc1ccc(O)cc1)[C@@H](C)O)C(C)C)C(C)C)C(=O)N[C@H](C(=O)N[C@@H](Cc1ccc(O)cc1)C(=O)O)C(C)C`, for which 0.005 µM corresponded to half-maximal inhibition at HLA-A*0101 (IC50).
